# scFv variants of Ab-14 (light chain) against a SARS-CoV-2 spike peptide

Target: peptide PDVDLGDISGINAS, taken from heptad repeat 2 (HR2) of SARS-CoV-2 spike.

Parent scFv Ab-14: VH joined to VL by three GGGGS repeats. Changes lie in the light chain CDRs alone.
VH: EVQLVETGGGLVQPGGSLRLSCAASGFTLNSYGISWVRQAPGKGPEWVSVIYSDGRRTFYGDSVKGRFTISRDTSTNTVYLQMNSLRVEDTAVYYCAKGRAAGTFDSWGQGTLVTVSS
VL: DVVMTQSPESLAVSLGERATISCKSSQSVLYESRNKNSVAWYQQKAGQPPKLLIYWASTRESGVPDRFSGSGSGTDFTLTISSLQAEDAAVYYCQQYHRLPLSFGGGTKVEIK

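This is the validation round: designs drawn from the data on random variants, tested in the same kind of assay. Group labels follow the data file (Rand: our label for a block that the file lists under HC and that is probably the random mutants of the ten best first-round binders; En: ensemble of fine-tuned language models; GP: Gaussian process model; HC: hill climbing; Gen: genetic algorithm; Gibbs: Gibbs sampling; a sequence that several methods proposed may carry one label only). The scFvs were displayed on barcoded MATa yeast, the peptide on MATalpha yeast. After mating in shaken culture at 30 °C for 16 h, diploids were selected and their barcode pairs sequenced. Scores were corrected for input abundance and mapped to Kd with protein pairs of known affinity run in the same pool. Mating was done six times.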

Variants are written as CDR1, CDR2 and CDR3 of the light chain (limits as in the source). Parent: KSSQSVLYESRNKNSVA, WASTRES, QQYHRLPLS.
This list holds designs with more than six substitutions.
Each Kd is an estimate from the mating assay, the geometric mean of the replicates in which the pair was seen; lower is stronger.
Where no diploid with the target was found in any replicate, the entry reads "nd": below detection, most likely a poor binder, though not proof of it.
Order: sorted from the lowest average up, undetected variants last.

Variant KISMTSENQLKNRNSVA | ELVTRMA | QQYNRLPLS [En_Gen] gave 360 pM (6 of 6 replicates; controls 0 of 18). Variant KISQSVGYEIRNKNSVA | NASQRMQ | QQYHRLPLS [GP_Gibbs] showed 650 pM (6 of 6 replicates; controls 1 of 18). For ALGDVTRMESNKKNSIA | DMSNRMD | QQYHRLPLS [En_HC], the assay gave 720 pM (6 of 6 replicates; controls 1 of 18). Variant TLGGVMDMTSRNVNSVA | DLTTRGN | QQYHRLPLS [En_HC] gave 860 pM (6 of 6 replicates; controls 1 of 18). Variant TIGQMFNGESRNRNSVA | QASTRNS | QSYDRLPLS [En_HC] showed 1.7 nM (6 of 6 replicates; controls 1 of 18). Variant MMSSLMGYESRHINNVA | QTSTREQ | QQYDRLPLI [En_Gen] gave 1.9 nM (6 of 6 replicates; controls 0 of 18). Variant KLEQSMDYESRNDNSVA | HASMRES | QQYHRLPLF [GP_Gibbs] showed 1.9 nM (6 of 6 replicates; controls 1 of 18). With TITEQGFEHMGNRNSVA | EAEHKQY | QQYAHLPLL [En_Gibbs] the result was 2.2 nM (6 of 6 replicates; controls 2 of 18). With KLSNSKWYESRMKNQVA | NASTREM | QQYHRLPLS [GP_Gibbs] the result was 2.3 nM (6 of 6 replicates; controls 4 of 18).

Variant KVFQSMLYEQRNQNSVA | SASTREN | QQYHRLPLS [GP_Gibbs] gave 2.9 nM (6 of 6 replicates; controls 0 of 18). Variant KIGMTLNQHLHQKNNVA | DLVERVN | QQYHRLPLS [En_Gen] gave 3.0 nM (6 of 6 replicates; controls 0 of 18). Variant KSAYSCLGESRNCNSVA | SASTREL | QQYHRLPLS [GP_Gibbs] showed 3.6 nM (6 of 6 replicates; controls 0 of 18). With KISQSIMFMSGMKNAIA | QMEMREE | QQYHRLPLS [En_HC] the result was 4.2 nM (6 of 6 replicates; controls 0 of 18). Variant TISQMFLGESRSRNSVA | QASTRES | QSYDRLPLS [En_HC] showed 4.8 nM (6 of 6 replicates; controls 3 of 18). Variant HASQSGLYEQRVKNSVA | SASMRES | QQYHRLPLS [GP_Gibbs] showed 5.0 nM (6 of 6 replicates; controls 1 of 18). With HIGGVLEGNNVKGRSVA | HMNTRED | QQYDRLPLI [En_Gen] the result was 5.0 nM (6 of 6 replicates; controls 0 of 18). Variant TISTSMRYESSLKNAIA | NAQERES | QQYHRLPIS [En_HC] showed 5.1 nM (6 of 6 replicates; controls 2 of 18). With QFDSSYRVGALNTDSIA | HAEMRVQ | QSYNRLPLM [En_Gibbs] the result was 5.2 nM (6 of 6 replicates; controls 1 of 18).

For IITQSVMSESRNKRNVA | NTSEREP | QQYDRLPLI [En_HC], the assay gave 6.4 nM (6 of 6 replicates; controls 5 of 18). For KLTSITGTEKVKGNNVA | EMETRES | QQYNRLPLS [En_Gen], the assay gave 7.2 nM (6 of 6 replicates; controls 0 of 18). For KLRNDFMENKQNQSNIA | GHHESIK | QQYSMLPLS [En_Gibbs], the assay gave 8.9 nM (6 of 6 replicates; controls 2 of 18). Variant MISGSVMSEQRLKNSVA | QTTTRES | QQYDRLPLS [En_HC] gave 12 nM (6 of 6 replicates; controls 1 of 18). With KVFQSVLLESMLVNSVA | YASQRED | QQYHRLPLS [GP_Gibbs] the result was 18 nM (1 of 6 replicates; controls 0 of 18). With TISQMMQLFSQTINNVA | EVSTRLN | QQYDRLPLM [En_Gen] the result was 20 nM (6 of 6 replicates; controls 1 of 18). Variant IVSQLMLWGAHAKNSIA | EAQTRLN | QQYDRLPLF [En_Gen] showed 35 nM (4 of 6 replicates; controls 0 of 18). For HITMGMYVAGRHYSSIA | QAEERAK | QQYDRLPLM [En_Gen], the assay gave 37 nM (6 of 6 replicates; controls 0 of 18). Variant KLDASMYVGTEAKRAIA | QDEMRVH | QQYDRLPLM [En_Gibbs] showed 37 nM (6 of 6 replicates; controls 0 of 18).

For RLSDLVKMESRNTNSVA | DNSTRGS | QQYDRLPLS [En_HC], the assay gave 80 nM (6 of 6 replicates; controls 2 of 18). With MMSQVTGQGTRHRNNVA | QTETREP | QQYDRLPLI [En_Gen] the result was 110 nM (6 of 6 replicates; controls 2 of 18). For KLSQMVGGESRNKSSLA | DNSTRES | QQYHRLPLS [En_HC], the assay gave 150 nM (6 of 6 replicates; controls 0 of 18). Variant HSSPSVLYESCNKNMVA | NASTREM | QQLHRLPLS [Rand] showed 1.1 µM (3 of 6 replicates; controls 2 of 18). For HFSQVTMYGYWNKNSVA | QTSTRED | QQYDRLPLS [En_HC], the assay gave nd (0 of 6 replicates; controls 0 of 18). With KISQMVTYESTWGNAIA | QTSEREE | QQYHRLPLS [En_HC] the result was nd (0 of 6 replicates; controls 0 of 18). Variant LIMKFMSQDGSARNNIA | GDTKLAQ | QAYYRLPLS [En_Gibbs] gave nd (0 of 6 replicates; controls 0 of 18).

The opening 4 entries, copied out:

For KISMTSENQLKNRNSVA | ELVTRMA | QQYNRLPLS [En_Gen], the assay gave 360 pM (6 of 6 replicates; controls 0 of 18).
For KISQSVGYEIRNKNSVA | NASQRMQ | QQYHRLPLS [GP_Gibbs], the assay gave 650 pM (6 of 6 replicates; controls 1 of 18).
For ALGDVTRMESNKKNSIA | DMSNRMD | QQYHRLPLS [En_HC], the assay gave 720 pM (6 of 6 replicates; controls 1 of 18).
For TLGGVMDMTSRNVNSVA | DLTTRGN | QQYHRLPLS [En_HC], the assay gave 860 pM (6 of 6 replicates; controls 1 of 18).

Values of this round are not directly comparable with the first-round values of the same sequences.
The authors averaged sequences with at least three values out of six and counted those with two or fewer as poor binders.
Empty control strains, which show no peptide, gave a signal in 4% of pairings with all light chain designs; the median was 430 nM and 95% of these signals were weaker than 38 nM. No background was subtracted. The control count says in how many pairings with the empty strains this scFv gave a signal.

Values reported by Li et al. 2023, doi:10.1038/s41467-023-39022-2 (FLAb copy).